# Literature values as cited in patent publication US20170003257A1, “WETNESS INDICATOR WITH TWO COLORANTS AND TWO STABILIZERS” (The Procter & Gamble Company, priority 2015, published 2017).
# Settings: Table 2 stabilizers, first pKa
compound,measurement,value
C1CN1,pKa (1),8
